Measured values reported in article PMC10742472, “Synthesis and Characterisation of Platinum(II) Diaminocyclohexane Complexes with Pyridine Derivatives as Anticancer Agents” (International Journal of Molecular Sciences, 2023).

Assay type: physicochemical
Experimental: Lipophilicity was calculated using RP-HPLC. A stock solution of each PC was injected at different isocratic ratios ranging from 70–90% solvent B (organic) at a flow rate of 1 mL·min^−1 [32, 33, 34]. The complexes have low solubility in water, often requiring DMSO to make concentrated solutions. Yet the LogK’ calculated using these experimental data indicated high lipophilicity, which is typical for 2+ charged complexes. […] When heat was applied, they would not precipitate out of the solution after cooling. This confirmed that a lack of persistence was the cause of the “observed” low solubility in H2O. […] Other factors, such as stability and cellular absorption, would need to be considered before the potential of these Pt(II) anticancer agents could be evaluated.
Lipophilicity was evaluated using RP-HPLC, whereby LogKw is calculated by injecting a stock solution of the PC at different isocratic ratios ranging from 70–90% solvent B (organic) at a flow rate of 1 mL·min^−1. […] The dead zero volume time was determined using potassium iodide as an external dead volume marker, with further details in the Supplementary Materials. The subsequent peaks were recorded, and K was calculated using Equation (6). (6) K=tr−t0/t0 where K is the capacity factor, tr is the retention time of the analyte, and t0 is the dead time determined using a solution of KI in the same column. […]

## [Pt(2-(1H-Imidazol-2-yl)pyridine)(1R,2R-(+)-diaminocyclohexane)]^2+ [Complex 5b]
  Lipophilicity: 2.26 ± 0.02

## [Pt(2-pyrrolidin-2-yl pyridine)(1R,2R-(+)-diaminocyclohexane)]^2+ [Complex 4b]
  Lipophilicity: 2.65 ± 0.02
